Data as given in PubChem BioAssay AID463079 (The Scripps Research Institute Molecular Screening Center, 2010).
The list shows a part of the results, in another mix than the full data. Some salts and complexes are drawn in separate pieces, as the source files them; their charges need not balance. Calls of active or inactive are those of the source.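 How the source made its calls: active means inhibition above that plate's mean sample inhibition plus 3 SD (cut at about 26% in these data); inactive means the rest.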

Experiment: nonselective Gq signaling inhibition in CHO cells – cell-based, fluorescence, Fluo-8 calcium dye, counter-screen for OX1R antagonist project, primary screen (AID 463079);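 further: 0% = ATP-challenged DMSO wells and 100% = DMSO wells without ATP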
Conditions: parental CHO-K1, ATP-induced calcium, Fluo-8 fluorescence; at 5.6 µM; stronger effect = higher value

| Structure (SMILES) | inhibition |
| --- | --- |
| CCN(CC)CCCOC(=O)C(O)(c1ccccc1)c1ccccc1 | inactive: -6.83% |
| Cc1cccc(C)c1OP(C)(N)=O (stereo not given) | inactive: -1.73% |
| CC(C)(C)c1ccc(OP(C)(=O)Nc2ccc(SC(F)(F)F)cc2)cc1 (stereo not given) | inactive: -28% |
| O=[N+]([O-])c1ccc2c(c1)C=Nc1ccccc1O2 | inactive: -11.6% |
| O=[N+]([O-])c1cc([N+](=O)[O-])c(Nc2cccnc2)c([N+](=O)[O-])c1 | inactive: 11.6% |
| COc1ccc(OP(C)(=O)Nc2cccc(F)c2)cc1 (stereo not given) | inactive: -8.51% |
| COc1ccccc1OP(C)(=O)Nc1cc(Cl)ccc1C (stereo not given) | inactive: -3.47% |
| Cc1cc(C)cc(OP(C)(N)=O)c1 (stereo not given) | inactive: 9.42% |
| CCOC(=O)c1ccc(NP(C)(=O)Oc2ccccc2)cc1 (stereo not given) | inactive: -0.77% |
| Cc1ccc(NP(C)(=O)Oc2ccccc2)c(C)c1 (stereo not given) | inactive: -7.11% |
| COc1ccccc1OP(C)(=O)Nc1ccc(C)cc1 (stereo not given) | inactive: 4.27% |
| COc1ccccc1OP(C)(=O)Nc1ccccc1 (stereo not given) | inactive: 11.4% |
| CP(=O)(Nc1ccccc1Br)Oc1ccccc1 (stereo not given) | inactive: -5.13% |
| CP(=S)(Nn1cnnc1)Oc1ccccc1 (stereo not given) | inactive: -1.55% |
| Cc1cc(C)cc(OP(C)(=O)Nc2ccc(SC(F)(F)F)cc2)c1 (stereo not given) | inactive: -5.75% |
| CP(=O)(NC(=O)Nc1ccccc1)Oc1ccccc1 (stereo not given) | inactive: 0.15% |
| CCc1ccc(OP(C)(=O)N2CCN(c3ccc([N+](=O)[O-])cc3)CC2)cc1 (stereo not given) | inactive: 8.88% |
| CP(=O)(Oc1ccccc1)OC(c1ccccc1)C(F)(F)F (stereo not given) | inactive: -7.13% |
| Cc1cccc(C)c1OP(C)(=O)Nc1ccc(SC(F)(F)F)cc1 (stereo not given) | inactive: 12.4% |
| CP(=O)(Nc1ccc(SC(F)(F)F)cc1)Oc1ccc(Cl)cc1 (stereo not given) | inactive: -10.1% |
| CP(=O)(Nc1ccccn1)Oc1ccc(Cl)cc1 (stereo not given) | inactive: -5.98% |
| CCOP(C)(=S)SCC(=O)NC(C)C(=O)O (stereo not given) | inactive: 3.36% |
| CCOC(=O)c1ccc(NP(C)(=O)Oc2ccc(OC)cc2)cc1 (stereo not given) | inactive: -3.22% |
| O=[N+]([O-])c1cc([N+](=O)[O-])c(O)c([N+](=O)[O-])c1.c1ccc(Oc2ccncc2)cc1 | inactive: 1.03% |
| O=[N+]([O-])c1cc([N+](=O)[O-])c(-n2nnc3ccccc32)c([N+](=O)[O-])c1 | inactive: -8.05% |
| Cc1nc2ccc3ccccc3c2s1.O=[N+]([O-])c1cc([N+](=O)[O-])c(O)c([N+](=O)[O-])c1 | inactive: -9.09% |
| O=[N+]([O-])c1cc([N+](=O)[O-])c(-c2cnn(-c3ccccc3)c2)c([N+](=O)[O-])c1 | inactive: -2.23% |
| CCOC(=O)C(CC)C1=NC(C)(C)Cc2ccccc21.O=[N+]([O-])c1cc([N+](=O)[O-])c(O)c([N+](=O)[O-])c1 (stereo not given) | inactive: -9.18% |

| Structure (SMILES) | inhibition |
| --- | --- |
| CC1=C2N=C(C=C3N=C(C(C)=C4[N-][C@@](C)([C@@H]5N=C1[C@](C)(CCC(=O)NC[C@@H](C)OP(=O)([O-])O[C@H]1[C@@H](O)[C@@H](n6cnc7cc(C)c(C)cc76)O[C@@H]1CO)[C@H]5CC(N)=O)[C@@](C)(CC(N)=O)[C@@H]4CCC(N)=O)[C@@](C)(CC(N)=O)[C@@H]3CCC(N)=O)C(C)(C)[C@@H]2CCC(N)=O.[C-]#N.[Co+3] | inactive: 0.95% |
| O=[N+]([O-])c1cc([N+](=O)[O-])c(Nc2nnnn2CCO)c([N+](=O)[O-])c1 | inactive: -1.33% |
| CP(=O)(Nc1ccc(SC(F)(F)F)cc1)Oc1ccccc1 (stereo not given) | inactive: -10.6% |
| COc1ccccc1OP(C)(=O)Nc1c(C)cccc1C (stereo not given) | inactive: -2.08% |
| CN1CCCCC1COC(=O)C1(O)c2ccccc2CCc2ccccc21 (stereo not given) | inactive: -21.1% |
| O=C(O)c1cccc(Nc2c([N+](=O)[O-])cc([N+](=O)[O-])cc2[N+](=O)[O-])c1 | inactive: 5.02% |
| CC1=NCCc2c1[nH]c1ccccc21.O=[N+]([O-])c1cc([N+](=O)[O-])c(O)c([N+](=O)[O-])c1 | inactive: -11.5% |
| Cc1cc(C)cc(OP(C)(=O)Nc2ccc(C)cc2C)c1 (stereo not given) | inactive: -13.4% |
| CCOC(=O)c1ccc(NP(C)(=O)Oc2cc(C)cc(C)c2)cc1 (stereo not given) | inactive: -28.7% |
| COc1ccccc1OP(C)(=O)Nc1cccc(Br)c1 (stereo not given) | inactive: -8.72% |
| Cc1cc(C)cc(OP(C)(=O)Nc2ccccn2)c1 (stereo not given) | inactive: -16% |
| CP(=O)(Nc1cccc(Br)c1)Oc1ccccc1 (stereo not given) | inactive: -8.03% |
| Cc1ccc(C)c(NP(C)(=O)Oc2ccccc2)c1 (stereo not given) | inactive: -6.49% |
| CC(C)c1ccc(OP(C)(=O)Nc2ccc(SC(F)(F)F)cc2)cc1 (stereo not given) | inactive: -15.2% |
| CP(=O)(Nc1ccccc1F)Oc1ccccc1 (stereo not given) | inactive: -5.96% |
| COc1ccc2c(c1O)-c1c(O)c(OC)cc3c1[C@H](C2)[N+](C)(C)CC3.O=[N+]([O-])c1cc([N+](=O)[O-])c([O-])c([N+](=O)[O-])c1[O-] | inactive: -8.45% |
| O=C(OCCN1CCN(CCOCc2ccccc2)CC1)C(O)(c1ccccc1)c1ccccc1 | inactive: -14.2% |
| O=C(OC1CN2CCC1CC2)c1ccc([N+](=O)[O-])cc1 (stereo not given) | inactive: -11.8% |
| COc1ccc(OP(C)(=O)Nc2ccc(SC(F)(F)F)cc2)cc1 (stereo not given) | inactive: 5.27% |
| CCOC(=O)c1ccc(NP(C)(=O)Oc2ccc(F)cc2)cc1 (stereo not given) | inactive: 0.74% |
| CCCCCOc1ccc(NP(C)(=O)Oc2ccc(Cl)cc2Cl)cc1 (stereo not given) | inactive: -20.5% |
| O=[N+]([O-])c1cc([N+](=O)[O-])c(OC2CCCCC2O)c([N+](=O)[O-])c1 (stereo not given) | inactive: -12.5% |
| CP(=O)(Nc1ccccc1)Oc1ccc(F)cc1 (stereo not given) | inactive: 13% |
| CCN(CC)CCCOC(=O)C(O)(c1ccccc1)C1CCCCC1 (stereo not given) | inactive: -22.4% |
| COc1ccc(NP(C)(=O)Oc2ccccc2OC)cc1 (stereo not given) | inactive: -8.48% |
| CN(C)CCOC(=O)C(O)(c1ccccc1)C1CCCCC1 (stereo not given) | inactive: -21% |
| COc1ccc(OP(C)(=O)Nc2cccc(Br)c2)cc1 (stereo not given) | inactive: -8.66% |
